Test [1] addresses RAC-alpha serine/threonine-protein kinase (Homo sapiens, UniProt P31749). Nature of the test: Affinity On-target Cellular interaction: (NanoBRET assay (HEK293T cells)) EUB0001560a AKT1. The format is cell-based. Further details: mode of action Negative control for BAY-1125976, recommended concentration 1 uM. The following applies: hek-293t. In general terms: Bioluminescence resonance energy transfer reports proximity on the nanometre scale.

The chains behind the UniProt entries cited, without tags or fusion partners. Where a name states a change or a piece, a line headed by the entry shows the natural chain unless it says otherwise.
UniProt P31749: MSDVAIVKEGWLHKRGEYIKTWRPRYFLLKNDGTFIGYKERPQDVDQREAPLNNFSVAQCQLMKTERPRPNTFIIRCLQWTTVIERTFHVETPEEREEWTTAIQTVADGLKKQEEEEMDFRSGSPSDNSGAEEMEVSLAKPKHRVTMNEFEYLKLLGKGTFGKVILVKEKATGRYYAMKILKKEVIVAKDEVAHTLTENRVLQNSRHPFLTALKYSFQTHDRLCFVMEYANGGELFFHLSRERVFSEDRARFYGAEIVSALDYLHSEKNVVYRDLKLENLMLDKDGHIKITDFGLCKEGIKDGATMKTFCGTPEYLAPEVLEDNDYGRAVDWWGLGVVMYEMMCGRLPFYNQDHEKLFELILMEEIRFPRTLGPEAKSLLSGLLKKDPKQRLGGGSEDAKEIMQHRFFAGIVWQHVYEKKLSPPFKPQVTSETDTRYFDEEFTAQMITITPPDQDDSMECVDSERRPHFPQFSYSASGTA
UniProt Q9Y2I7: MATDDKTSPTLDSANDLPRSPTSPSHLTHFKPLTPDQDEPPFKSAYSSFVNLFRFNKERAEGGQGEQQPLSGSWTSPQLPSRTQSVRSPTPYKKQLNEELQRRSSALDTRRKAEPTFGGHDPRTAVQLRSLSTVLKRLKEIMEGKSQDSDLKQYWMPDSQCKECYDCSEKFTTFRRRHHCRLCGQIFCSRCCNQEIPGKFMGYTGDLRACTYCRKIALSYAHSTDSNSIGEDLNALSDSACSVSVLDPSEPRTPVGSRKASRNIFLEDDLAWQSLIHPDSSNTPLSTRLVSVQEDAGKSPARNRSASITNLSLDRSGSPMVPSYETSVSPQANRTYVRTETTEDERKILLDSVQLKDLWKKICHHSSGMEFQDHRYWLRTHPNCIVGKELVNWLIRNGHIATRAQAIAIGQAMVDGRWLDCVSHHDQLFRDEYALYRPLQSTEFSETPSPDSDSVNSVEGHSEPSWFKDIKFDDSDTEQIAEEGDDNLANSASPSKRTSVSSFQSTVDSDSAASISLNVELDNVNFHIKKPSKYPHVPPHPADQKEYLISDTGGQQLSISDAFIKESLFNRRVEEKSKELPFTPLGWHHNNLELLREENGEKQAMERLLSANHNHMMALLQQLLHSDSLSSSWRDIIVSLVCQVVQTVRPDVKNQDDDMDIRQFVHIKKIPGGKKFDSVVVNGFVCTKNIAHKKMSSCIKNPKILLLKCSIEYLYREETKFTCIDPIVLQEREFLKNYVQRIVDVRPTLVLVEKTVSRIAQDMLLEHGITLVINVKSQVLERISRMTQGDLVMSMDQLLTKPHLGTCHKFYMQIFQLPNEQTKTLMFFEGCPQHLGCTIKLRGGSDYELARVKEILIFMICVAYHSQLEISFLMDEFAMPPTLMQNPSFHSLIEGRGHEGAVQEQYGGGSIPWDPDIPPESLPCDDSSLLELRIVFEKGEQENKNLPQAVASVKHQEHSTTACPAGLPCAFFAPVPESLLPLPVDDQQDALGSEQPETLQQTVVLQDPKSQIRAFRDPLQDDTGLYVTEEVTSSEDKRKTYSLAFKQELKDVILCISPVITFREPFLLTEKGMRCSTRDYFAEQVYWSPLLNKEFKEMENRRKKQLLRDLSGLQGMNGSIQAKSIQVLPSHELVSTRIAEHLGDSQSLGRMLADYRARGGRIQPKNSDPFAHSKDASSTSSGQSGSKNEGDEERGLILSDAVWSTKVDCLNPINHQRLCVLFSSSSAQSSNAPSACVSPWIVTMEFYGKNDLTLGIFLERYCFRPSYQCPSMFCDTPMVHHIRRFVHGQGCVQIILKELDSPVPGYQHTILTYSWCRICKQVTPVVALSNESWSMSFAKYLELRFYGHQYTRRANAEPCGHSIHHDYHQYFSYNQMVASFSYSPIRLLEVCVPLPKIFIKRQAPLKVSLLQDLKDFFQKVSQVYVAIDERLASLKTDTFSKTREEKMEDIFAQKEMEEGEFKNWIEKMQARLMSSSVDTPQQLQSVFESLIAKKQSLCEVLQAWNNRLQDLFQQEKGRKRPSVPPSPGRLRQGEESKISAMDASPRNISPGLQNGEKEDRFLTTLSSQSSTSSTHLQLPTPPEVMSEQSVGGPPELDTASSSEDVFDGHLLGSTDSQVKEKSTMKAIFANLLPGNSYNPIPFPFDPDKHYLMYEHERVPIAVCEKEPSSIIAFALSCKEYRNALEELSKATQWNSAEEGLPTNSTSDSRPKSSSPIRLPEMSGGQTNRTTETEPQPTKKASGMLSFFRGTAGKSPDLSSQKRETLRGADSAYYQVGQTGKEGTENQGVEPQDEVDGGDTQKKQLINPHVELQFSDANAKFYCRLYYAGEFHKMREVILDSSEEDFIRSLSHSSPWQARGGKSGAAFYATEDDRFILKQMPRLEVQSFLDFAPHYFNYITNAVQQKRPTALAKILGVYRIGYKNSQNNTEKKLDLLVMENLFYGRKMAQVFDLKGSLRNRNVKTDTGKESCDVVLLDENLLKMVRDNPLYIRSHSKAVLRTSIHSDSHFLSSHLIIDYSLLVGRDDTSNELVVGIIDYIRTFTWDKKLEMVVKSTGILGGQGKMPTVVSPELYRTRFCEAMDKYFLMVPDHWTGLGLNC
UniProt P49674: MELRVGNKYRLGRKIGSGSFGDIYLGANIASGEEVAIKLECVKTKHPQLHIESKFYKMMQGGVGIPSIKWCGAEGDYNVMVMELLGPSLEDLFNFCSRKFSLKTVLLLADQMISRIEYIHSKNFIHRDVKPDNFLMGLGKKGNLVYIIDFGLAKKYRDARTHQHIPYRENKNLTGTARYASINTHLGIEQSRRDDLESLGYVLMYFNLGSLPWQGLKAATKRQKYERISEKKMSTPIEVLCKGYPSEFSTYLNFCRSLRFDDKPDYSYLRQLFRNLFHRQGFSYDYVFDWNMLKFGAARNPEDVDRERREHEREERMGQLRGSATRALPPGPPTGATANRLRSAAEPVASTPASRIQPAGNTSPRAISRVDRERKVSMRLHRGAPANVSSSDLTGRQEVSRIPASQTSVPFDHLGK
UniProt P48730: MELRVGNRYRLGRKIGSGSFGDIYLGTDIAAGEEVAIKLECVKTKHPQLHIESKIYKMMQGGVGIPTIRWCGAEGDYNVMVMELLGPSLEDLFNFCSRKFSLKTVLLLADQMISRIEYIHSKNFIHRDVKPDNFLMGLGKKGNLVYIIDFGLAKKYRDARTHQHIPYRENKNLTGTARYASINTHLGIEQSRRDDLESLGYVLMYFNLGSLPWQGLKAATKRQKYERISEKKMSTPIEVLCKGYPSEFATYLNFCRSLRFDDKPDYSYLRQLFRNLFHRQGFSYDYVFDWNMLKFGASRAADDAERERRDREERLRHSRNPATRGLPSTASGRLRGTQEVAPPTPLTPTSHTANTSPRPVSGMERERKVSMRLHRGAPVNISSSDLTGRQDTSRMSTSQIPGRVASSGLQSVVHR
UniProt P49759: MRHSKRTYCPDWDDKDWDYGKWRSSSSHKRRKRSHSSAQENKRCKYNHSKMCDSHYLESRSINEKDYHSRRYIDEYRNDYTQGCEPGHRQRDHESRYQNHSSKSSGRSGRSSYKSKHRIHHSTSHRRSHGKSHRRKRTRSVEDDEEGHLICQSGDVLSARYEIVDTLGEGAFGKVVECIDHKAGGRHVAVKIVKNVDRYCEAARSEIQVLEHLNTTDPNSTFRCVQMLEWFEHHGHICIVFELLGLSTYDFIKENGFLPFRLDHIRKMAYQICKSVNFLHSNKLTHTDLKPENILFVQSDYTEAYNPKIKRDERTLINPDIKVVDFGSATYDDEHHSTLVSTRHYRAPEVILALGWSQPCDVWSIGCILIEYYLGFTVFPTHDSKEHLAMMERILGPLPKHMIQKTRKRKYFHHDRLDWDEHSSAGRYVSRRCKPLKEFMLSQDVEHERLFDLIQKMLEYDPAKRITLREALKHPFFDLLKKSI
UniProt P49760, whole entry: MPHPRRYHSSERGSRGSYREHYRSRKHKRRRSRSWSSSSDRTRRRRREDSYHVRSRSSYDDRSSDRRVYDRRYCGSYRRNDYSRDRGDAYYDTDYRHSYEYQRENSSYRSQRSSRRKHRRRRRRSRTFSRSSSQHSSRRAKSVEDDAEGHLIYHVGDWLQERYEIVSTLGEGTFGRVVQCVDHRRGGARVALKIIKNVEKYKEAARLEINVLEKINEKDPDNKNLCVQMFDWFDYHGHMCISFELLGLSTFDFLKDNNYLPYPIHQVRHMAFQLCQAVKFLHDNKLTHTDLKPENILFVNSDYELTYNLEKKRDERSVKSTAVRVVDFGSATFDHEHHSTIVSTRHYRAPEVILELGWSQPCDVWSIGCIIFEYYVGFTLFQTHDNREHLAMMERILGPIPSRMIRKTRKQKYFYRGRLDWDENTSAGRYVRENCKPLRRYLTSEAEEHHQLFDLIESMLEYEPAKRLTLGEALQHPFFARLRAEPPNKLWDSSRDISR

Test [2] has as its target 1-phosphatidylinositol 3-phosphate 5-kinase (Homo sapiens, UniProt Q9Y2I7). Nature of the test: Affinity On-target Cellular interaction: (NanoBRET assay (HEK293T cells)) EUB0001877a PIKFYVE. The format is cell-based, HEK-293T. Further details: mode of action Negative control for SGC-PIKFYVE, recommended concentration 100 nM.
The target in test [3] is Casein kinase I isoform epsilon (Homo sapiens, UniProt P49674). Nature of the test: Affinity On-target Cellular interaction: (Translocation Assay (CSNK1E mediated PER3 nuclear translocation in COS-7 cells)) EUB0001199aCl CSNK1E. In kind it is cell-based, Chlorocebus aethiops. Further details: mode of action Inhibitor, recommended concentration 1 uM.
In test [4] the target is Casein kinase I isoform delta (Homo sapiens, UniProt P48730). Nature of the test: Affinity On-target Cellular interaction: (Translocation Assay (CSNK1D mediated PER3 nuclear translocation in COS-7 cells)) EUB0001199aCl CSNK1D. In kind it is cell-based, Chlorocebus aethiops. Further details: mode of action Inhibitor, recommended concentration 1 uM.
Test [5] deals with Dual specificity protein kinase CLK1 (Homo sapiens, UniProt P49759). The test is described as follows: Affinity On-target Cellular interaction: (NanoBRET assay (in HEK293T cells)) EUB0000008b CLK1. In kind it is cell-based, HEK-293T. Further details: mode of action Inhibitor, recommended concentration 1 uM.
Test [6] deals with Dual specificity protein kinase CLK2 (Homo sapiens, UniProt P49760). Nature of the test: Affinity On-target Cellular interaction: (NanoBRET assay (in HEK293T cells)) EUB0000008b CLK2. In kind it is cell-based, HEK-293T. Further details: mode of action Inhibitor, recommended concentration 1 uM.

This is an account of results in ChEMBL document CHEMBL5445981, “Affinity On-target Cellular Literature for EUbOPEN Chemogenomic Library” (2024).

On to `NC1(c2ccc(-c3nc4c(O)ccnn4c3-c3ccccc3)cc2)CCC1`, for which, in test [1], half-maximal inhibition (IC50) required 6000 nM. With `Nc1ncc2c(n1)-c1c([nH]c3ccc(C4CC4)cc13)CCCC2`, the half-inhibitory concentration (IC50) in test [2] is over 10000 nM. For `CN1Cc2nccc(-c3cn(C)nc3-c3ccc(F)cc3)c2C1=O`, the EC50 stood at 318 nM in test [3] and 58 nM in test [4]. With `Cn1cc(-c2ccc3occ(-c4cccc(-c5ccncc5)c4)c3n2)cn1`, the Ki turned out to be 84 nM in test [5] and 91 nM in test [6].

Usually IC50 stands for the concentration needed to halve the response being measured. A high value points to a need for much substance. As a reminder, the EC50 is the midpoint of the concentration-response curve. By Ki is commonly meant the equilibrium dissociation constant of an inhibitor or competing ligand from its target. Low readings indicate a stronger hold on the target, high ones a looser hold on the target.
